# Experimental data reported in US8883782B2, “Spiro-tetracyclic ring compounds as beta-secretase modulators and methods of use” (Amgen Inc., priority 2010, dated 2014).
# Sequences of proteins named here, by UniProt entry; tags and fusion partners are left off. Residues count along the entry.
# UniProt P56817, 46-501 limits assumed: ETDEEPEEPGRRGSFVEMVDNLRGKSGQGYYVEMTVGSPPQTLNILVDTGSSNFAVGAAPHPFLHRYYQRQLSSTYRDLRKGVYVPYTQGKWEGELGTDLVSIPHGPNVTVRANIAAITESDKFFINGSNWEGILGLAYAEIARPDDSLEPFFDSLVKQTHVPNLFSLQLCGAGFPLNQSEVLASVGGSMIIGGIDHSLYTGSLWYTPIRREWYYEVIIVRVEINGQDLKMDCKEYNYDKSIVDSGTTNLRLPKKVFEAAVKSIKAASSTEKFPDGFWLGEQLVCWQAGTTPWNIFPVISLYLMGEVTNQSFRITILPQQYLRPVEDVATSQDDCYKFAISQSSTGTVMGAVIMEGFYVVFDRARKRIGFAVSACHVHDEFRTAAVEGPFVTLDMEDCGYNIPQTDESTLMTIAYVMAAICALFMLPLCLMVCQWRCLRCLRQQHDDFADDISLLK
# Experiments:
# [1] = target: Beta Secretase enzyme (BACE) (Homo sapiens, UniProt P56817); assay: In vitro enzymatic BACE FRET (fluorescence resonance energy transfer) assay; type: biochemical; conditions: read-out: BACE 1 FRET assay; average IC50, enzyme assay
# [2] = test system: Aβ40 in conditioned medium of cells stably expressing Amyloid Precursor Protein (APP); assay: In vitro BACE cell-based assay (Aβ40 in conditioned medium, sandwich ELISA); conditions: read-out: HEK cell assay; average IC50, HEK cell assay
smiles,measurement,setting,value
NC1=N[C@@]2(CO1)c1cc(-c3cncc(F)c3)ccc1Oc1c2cc(C2CC2)nc1F,IC50,[1],316 nM
same,IC50,[2],1150 nM
